## scFv variants of Ab-14 (heavy chain) against a SARS-CoV-2 spike peptide

Antigen: PDVDLGDISGINAS, a 14-residue peptide of the SARS-CoV-2 spike HR2 region.

Ab-14 is the parent antibody, in scFv form: VH, then a 15-residue (Gly4Ser)3 linker, then VL. The light chain is unchanged in all variants.
VH: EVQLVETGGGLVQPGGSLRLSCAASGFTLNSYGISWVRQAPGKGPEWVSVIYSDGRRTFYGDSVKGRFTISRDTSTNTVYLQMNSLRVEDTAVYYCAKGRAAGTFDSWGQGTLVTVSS
VL: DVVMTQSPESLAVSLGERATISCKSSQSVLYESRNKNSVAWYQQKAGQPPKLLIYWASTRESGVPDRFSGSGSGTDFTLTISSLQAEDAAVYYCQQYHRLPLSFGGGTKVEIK

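Phage display of a naive human antibody library on the peptide gave the parent. Variants in AAYL49 differ from the parent at up to three CDR positions; double and triple changes were sampled at random. In AlphaSeq, yeast of one mating type display the scFv and yeast of the other type display the target. Mating (16 h, 30 °C) was followed by selection of diploids and sequencing of their barcodes. The ratio of observed to expected reads was calibrated, replicate by replicate, on BCL2-family standards whose Kd was known from biolayer interferometry. The assay was run in three technical replicates.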

Substitutions are numbered in sequence along the VH above, starting at 1 (not Kabat). Affinities are written as log10 Kd with Kd in nM; a lower number is a better binder. An entry "n.d." has no value in the source: the pair was not observed among the diploids in that replicate. This suggests poor binding but is not conclusive. Background: pairings of library AAYL49 with three empty control strains gave a value in 15% of cases (median 4.06, 5th percentile 2.83). Values in that range, when seen in few replicates, are hard to tell from nonspecific mating. The control count says in how many pairings with the empty strains this scFv gave a signal, with their mean in brackets. For reference, the parent read 0.65 as the reference entry and 4.11 (one replicate of three) as a member of this library.

| # | changes | log10 Kd, replicates | signal with controls |
|---|---|---|---|
| 1 | G33V/S63H/K65I | n.d. n.d. n.d. | 0/9 |
| 2 | G26H/G61Q/S63W | n.d. 3.34 n.d. | 0/9 |
| 3 | F27V/D62L/G99R | n.d. 4.27 n.d. | 1/9 (4.34) |
| 4 | F27I/N30E/K65E | 2.26 2.29 1.18 | 1/9 (2.62) |
| 5 | N30V/A101T/D106A | 3.81 3.29 2.72 | 0/9 |
| 6 | N30Y/A101G | 2.48 2.34 2.94 | 1/9 (3.60) |
| 7 | G26P/L29D/G103D | n.d. 3.47 n.d. | 1/9 (3.79) |
| 8 | S53T/R56E/F105I | n.d. n.d. n.d. | 0/9 |
| 9 | L29R/S53P/D106K | n.d. 5.23 n.d. | 4/9 (4.21) |
| 10 | G33S/Y60I/V64R | n.d. n.d. n.d. | 0/9 |
| 11 | S35C/T58S/S63V | n.d. 4.10 n.d. | 2/9 (4.58) |
| 12 | Y32P/I51S/D54E | n.d. n.d. n.d. | 0/9 |
| 13 | T28A/Y32K/I34N | n.d. n.d. n.d. | 0/9 |
| 14 | T28C/R56L/T104Y | 1.76 1.86 1.98 | 2/9 (4.09) |
| 15 | L29N/I34P/V64H | n.d. n.d. 3.81 | 0/9 |
| 16 | F27C/S35E/S53F | n.d. n.d. n.d. | 0/9 |
| 17 | S35C/V64F/A101Q | n.d. 4.36 n.d. | 1/9 (2.72) |
| 18 | S53H/F105S | 1.07 1.16 1.29 | 0/9 |
| 19 | F27W/S31F/G61T | 1.91 2.21 1.88 | 3/9 (4.20) |
| 20 | F59A/D62C/A101Q | 1.27 1.33 1.46 | 2/9 (3.44) |
| 21 | F27H/N30I/Y60K | n.d. 4.35 4.47 | 2/9 (4.13) |
| 22 | G33S/V64Q/G99F | n.d. n.d. n.d. | 0/9 |
| 23 | R56E/G61V/A102Y | n.d. n.d. n.d. | 0/9 |
| 24 | V64H/A102W/G103P | n.d. n.d. n.d. | 2/9 (3.41) |
| 25 | I51T/R56M/S107P | 4.07 n.d. n.d. | 0/9 |
| 26 | L29Y/S63A/T104R | 4.92 n.d. 4.94 | 3/9 (4.30) |
| 27 | L29A/R57T/S107V | n.d. 3.30 n.d. | 0/9 |
| 28 | G26T/S35G/T58W | n.d. n.d. n.d. | 1/9 (3.60) |
| 29 | D54I/G99M/S107P | n.d. n.d. n.d. | 0/9 |
| 30 | F27H/T104A/S107Y | 4.40 3.47 n.d. | 0/9 |
| 31 | G55Y/G99W/D106W | n.d. 4.82 n.d. | 1/9 (3.21) |
| 32 | G26A/T28Q/T104L | n.d. 4.93 5.98 | 3/9 (4.82) |
| 33 | S31V/R56T/S63H | 3.07 3.23 n.d. | 2/9 (3.42) |
| 34 | T28G/I51M/F105S | n.d. n.d. n.d. | 2/9 (3.77) |
| 35 | G33I/V50T/F105I | n.d. n.d. n.d. | 0/9 |
| 36 | G61K/A101K/S107D | 2.67 2.39 2.93 | 2/9 (3.10) |
| 37 | Y32M/D62Q/F105T | n.d. 3.73 n.d. | 1/9 (3.47) |
| 38 | F27Q/Y52L/S107T | n.d. n.d. 4.85 | 0/9 |
| 39 | S31W/S63H/D106Y | n.d. 2.86 3.50 | 0/9 |
| 40 | T28Q/T58N | 3.29 n.d. 2.54 | 1/9 (4.43) |
| 41 | R57T/K65C/S107E | 2.56 n.d. n.d. | 0/9 |
| 42 | Y32C/D62Q | 3.19 n.d. 3.99 | 2/9 (4.10) |
| 43 | Y52C/S53C | n.d. 4.04 4.34 | 0/9 |
| 44 | S63F/A102C | n.d. n.d. n.d. | 1/9 (3.18) |
| 45 | V50H/G103D/T104S | n.d. n.d. n.d. | 0/9 |

3 of these entries, quoted again:

{"changes": "Y32M/D62Q/F105T", "log10 Kd, replicates": "n.d. 3.73 n.d.", "signal with controls": "1/9 (3.47)"}
{"changes": "G33S/Y60I/V64R", "log10 Kd, replicates": "n.d. n.d. n.d.", "signal with controls": "0/9"}
{"changes": "T28G/I51M/F105S", "log10 Kd, replicates": "n.d. n.d. n.d.", "signal with controls": "2/9 (3.77)"}

Values reported by Engelhart et al. 2022, doi:10.1038/s41597-022-01779-4 (FLAb copy).